Experimental data published in patent publication US20250375542A1, “18F-LABELED PSMA-TARGETED PET IMAGING AGENTS” (Cancer Targeted Technology LLC, priority 2013, published 2025).

Test system: CWR22Rv1 (PSMA+) tumor xenografts
Test: PET imaging and biodistribution in CWR22Rv1 (PSMA+) tumor xenograft mice

O=C(O)CCC(NP(=O)(O)OCCCC(NC(=O)CCC(NC(=O)CCCCCNC(=O)c1ccc([18F])cc1)C(=O)O)C(=O)O)C(=O)O (centres unmarked) [[18F]CTT1057]
Kidneys uptake (ex vivo biodistribution Example 14, 1 h): 18.12±2.21 % ID/g
Kidneys uptake (ex vivo biodistribution Example 14, 4 h): 17.17±4.13 % ID/g
